This is a selection; strong and weak results do not stand in their true shares. Calls of active or inactive are those of the source. Rule as the data show it: active = activation above about 7.5%; inactive = the rest.
tested on: Methionine sulfoxide reductase A (Bos taurus); test: activation of methionine sulfoxide reductase A – biochemical, absorbance, bovine, HTS, primary screen (AID 602163); settings: purified bovine MsrA, absorbance read-out; at 10.6 µM; stronger effect = higher value;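 also: 0% = vehicle and 100% = reference activator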

| Compound | activation |
| --- | --- |
| COC(=O)C1(C)COP(=O)(N2CCCC2)OC1 (stereo not drawn) | inactive: -1.82% |
| COP1(=S)c2c(C)nn(CCC#N)c2N=C(c2ccc(F)cc2)N1C (stereo not drawn) | inactive: -1.59% |
| COc1ccc(N/C(=N/P(=O)(N2CCOCC2)N2CCOCC2)N2CCOCC2)cc1 | inactive: -2.47% |
| O=[N+]([O-])c1cc(Oc2ccc([N+](=O)[O-])cc2C(F)(F)F)cc([N+](=O)[O-])c1 | inactive: 0.99% |
| COc1cc(I)ccc1[As](=O)(O)O | inactive: -2.14% |
| COc1ccc2nc(NP(=O)(c3ccccc3)c3ccccc3)sc2c1 | inactive: -4.01% |
| O=P1(N(CCCl)CCCl)OCCCN1CCCl (stereo not drawn) | inactive: 1.08% |
| O=P1(N(CCCl)CCCl)Nc2ccccc2N1 | inactive: -4.57% |
| Cc1cc(=O)[nH]c(N[N+](=O)[O-])n1 | inactive: -9.87% |
| O=C(OC1CN2CCC1CC2)C12CC3CC(CC(C3)C1)C2 (stereo not drawn) | inactive: -1.52% |
| Cc1c2c(nc3ccccc13)SC(C(Cl)Cl)C2 (stereo not drawn) | inactive: -6.02% |
| O=[N+]([O-])c1cc([N+](=O)[O-])c(-c2ccn[nH]2)s1 | inactive: -0.22% |
| CC(C)NC(=O)NP(=O)(Oc1ccccc1)Oc1ccccc1 | inactive: -12.6% |
| O=C(OC1CN2CCC1CC2)c1cccc2[nH]cnc12 (stereo not drawn) | inactive: -6.77% |
| CCN(CC)C(=S)SC(NC=O)C(Cl)(Cl)Cl (stereo not drawn) | inactive: -2.58% |
| COC(=O)C1(C)COP(=O)(N2CCCCCC2)OC1 (stereo not drawn) | inactive: -2.21% |
| CC(C)c1ccc(OP(=O)(Nc2ccccn2)Oc2ccccc2F)cc1 (stereo not drawn) | inactive: -11.7% |
| ClCCSc1nnc(-c2cccnc2)o1 | inactive: 1.24% |
| Cc1ccc2nc3c(c(C)c2c1)CC(C(Cl)Cl)S3 (stereo not drawn) | inactive: -2.32% |
| [N-]=[N+]=NC1CCCCC1NC(=O)c1cc([N+](=O)[O-])cc([N+](=O)[O-])c1 (stereo not drawn) | inactive: 1.34% |
| Cc1ccc(OP(=O)(Nc2ccc([N+](=O)[O-])cn2)Oc2ccc(C)cc2)cc1 | inactive: -4.92% |
| O=[N+]([O-])c1ccc(-c2cc([N+](=O)[O-])c(O)c([N+](=O)[O-])c2)cc1 | inactive: -10.1% |
| COc1cc(C(=O)NCC2(N3CCOCC3)CCCCC2)ccc1OCC(C)C | inactive: -9.92% |
| O=[As](O)(c1ccc(O)cc1)c1ccccc1O | inactive: -2.1% |
| C[As](=O)(O)c1cccc(C(=O)O)c1 | inactive: 3.36% |

| Compound | activation |
| --- | --- |
| CN(C(=O)Cc1ccc(Cl)c(Cl)c1)[C@H]1CC[C@@]2(CCCO2)C[C@@H]1N1CCCC1 | inactive: 1.74% |
| O=[N+]([O-])c1ccc2c(c1)nnn2O | inactive: -10.2% |
| CN(C)C(=O)c1cc([N+](=O)[O-])cc2c1-c1c(cc([N+](=O)[O-])cc1[N+](=O)[O-])C2=O | inactive: -10.9% |
| CN(C(=O)Cc1ccccc1)[C@@H]1CC[C@]2(CCCO2)C[C@H]1N1CCCC1 | inactive: -1.58% |
| CCOP1(=S)c2c(C)nn(CCC#N)c2N=C(c2ccc(F)cc2)N1C (stereo not drawn) | inactive: -12.3% |
| N#CCCN(C(=O)COC(=O)C(O)(c1ccccc1)c1ccccc1)c1ccc(F)cc1 | inactive: -3.12% |
| NC(=O)Nc1ccc([As](=O)(O)O)cc1 | inactive: -2.23% |
| Nc1ccccc1[As](=O)(O)c1ccccc1 | inactive: -4.92% |
| O=C(O)COc1ccc([As](=O)(O)O)cc1[N+](=O)[O-] | inactive: -11.1% |
| CS(=O)(=O)c1cc([N+](=O)[O-])c2no[n+]([O-])c2c1 | inactive: 1.05% |
| O=P(Nc1nccs1)(Oc1ccccc1)Oc1ccccc1 | inactive: -8.94% |
| O=P(Nc1nccs1)(c1ccccc1)c1nc2ccccc2s1 (stereo not drawn) | inactive: -3.3% |
| CCOP1(=S)c2c(C)nn(CCC#N)c2N=C(c2ccccc2F)N1C (stereo not drawn) | inactive: -2.18% |
| CCOP(=O)(Nc1cccc2ccccc12)OCC | inactive: -1.06% |
| COc1cc(C2NCCC3(OCCO3)C2(C)C)cc(OC)c1OC (stereo not drawn) | inactive: 3.95% |
| CCCOP(=S)(Nc1nc(N)cc(=O)[nH]1)OCCC | inactive: -0.45% |
| Nc1cccc2c([As](=O)(O)O)cccc12 | inactive: -1.09% |
| Cc1ccc(NCCc2c([N+](=O)[O-])cc([N+](=O)[O-])cc2[N+](=O)[O-])cc1 | inactive: 2.44% |
| Cc1cccc(OCC(=O)OC2CN3CCC2CC3)c1 (stereo not drawn) | inactive: -12.5% |
| O=[As](O)(c1cccc(O)c1)c1cccc(O)c1 | inactive: -7.19% |
| CS(=O)(=O)c1ccc(Cl)c(NC(=O)COC(=O)C(O)(c2ccccc2)c2ccccc2)c1 | inactive: -3.37% |
| O=[As](O)(O)c1cccnc1 | inactive: -1.43% |
| COc1cc(C(=O)NCC2(N3CCOCC3)CCCCC2)cc(Cl)c1OC(C)C | inactive: -3.66% |
| O=C(OC1CN2CCC1CC2)c1ccc(Cl)cc1 (stereo not drawn) | inactive: -3.54% |
| CC1(CBr)Cn2c(nc3ccccc3c2=O)S1 (stereo not drawn) | inactive: -3.62% |

| Compound | activation |
| --- | --- |
| CC(C)/C=N\N=C(\N)N[N+](=O)[O-] | inactive: -1.81% |
| COc1ccccc1CNC(=O)COC(=O)C(O)(c1ccccc1)c1ccccc1 | inactive: -2.45% |
| CC(C)(C)C(=O)NC(Sc1ncccn1)C(Cl)(Cl)Cl (stereo not drawn) | inactive: 3.34% |
| O=P1(N(CCCl)CCCl)NCCC(C(F)(F)F)O1 (stereo not drawn) | inactive: -2.78% |
| Clc1n[nH]nc1-c1nn[nH][15n]1 | inactive: -3.29% |
| CCOP(=O)(Nc1ccc(C)cn1)OCC | inactive: -2.59% |
| CN(CCCl)Cc1cc(Cl)c(NC2=NCCN2)c(Cl)c1 | inactive: -2.03% |
| CCOP(=O)(NC(=NC(C)c1ccccc1)NC(C)c1ccccc1)OCC (stereo not drawn) | inactive: -3.49% |
| O=P1(Nc2ccccn2)COc2ccccc2OC1 | inactive: -9.2% |
| CCC1=CC2Cc3nc4ccc(Cl)cc4c(N)c3C(C1)C2 (stereo not drawn) | inactive: -8.52% |
| O=[As](O)(c1cccs1)c1cccs1 | inactive: -3.02% |
| Cc1ccc(OCC(=O)OC2CN3CCC2CC3)cc1 (stereo not drawn) | inactive: -2.03% |
| O=P1(Nc2ccc(Br)cn2)COc2ccccc2OC1 | inactive: -0.3% |
| NS(=O)(=O)c1cccc(NC(=O)COC(=O)C(O)(c2ccccc2)c2ccccc2)c1 | inactive: -1.78% |
| Nc1cccc([As](=O)(O)c2ccccc2)c1 | inactive: -2.67% |
| O=P1(Nc2ncccn2)COc2ccccc2OC1 | inactive: -1.72% |
| Cc1ccc(S(=O)(=O)N(CCCN)CCCc2c(C)nc(N)[nH]c2=O)cc1 | inactive: -6.89% |
| CCCC1OP(=O)(Nc2ccccc2)OCC1CC (stereo not drawn) | inactive: -1.18% |
| O=C(/C=C/c1ccccc1)OC1CN2CCC1CC2 (stereo not drawn) | inactive: 2.52% |
| CN(C)C1(CNC(=O)c2ccc(S(C)(=O)=O)cc2)CCCCC1 | inactive: -4.98% |
| CC1CCC(C(C)C)C(OP(=O)(Nc2ccccn2)c2ccccc2)C1 (stereo not drawn) | inactive: -5.49% |
| Cc1ccc(C(=O)OC2CN3CCC2CC3)cc1 (stereo not drawn) | inactive: -4.88% |
| Cc1nn(-c2ccccc2)c2c1P(=O)(N1CCOCC1)N(C)C(c1ccccc1)=N2 (stereo not drawn) | inactive: -3.5% |
